Where two headings read alike, the source gives them in different places.
Experiments:
IDH1R132H = IDH1R132H (Homo sapiens (Human), UniProt O75874, R132H); experiment: Inhibitory activity against IDH1R132H enzyme (NADPH detection, WST-8); type: biochemical; conditions: 12 nM, residual NADPH detected with WST-8, read-out: Test Example 1 IDH1 R132H IC50
TF-1/IDH1R132H cells = experiment: Inhibitory activity of TF-1/IDH1R132H cell growth (ATPlite); type: cell-based, human; conditions: Homo sapiens, read-out: Test Example 4 IC50
[1] = system: IDH1R132H-expressing TF-1 cells (TF-1/IDH1R132H); experiment: Inhibitory activity of 2-HG production using IDH1R132H-expressing TF-1 cells; type: cell-based, human; conditions: Homo sapiens
[2] = 2-HG production, IDH1R132H-expressing TF-1 cells, read-out: Test Example 2 IC50

Chains of the proteins cited; added tags and fusions are not shown.
UniProt O75874, whole entry R132H: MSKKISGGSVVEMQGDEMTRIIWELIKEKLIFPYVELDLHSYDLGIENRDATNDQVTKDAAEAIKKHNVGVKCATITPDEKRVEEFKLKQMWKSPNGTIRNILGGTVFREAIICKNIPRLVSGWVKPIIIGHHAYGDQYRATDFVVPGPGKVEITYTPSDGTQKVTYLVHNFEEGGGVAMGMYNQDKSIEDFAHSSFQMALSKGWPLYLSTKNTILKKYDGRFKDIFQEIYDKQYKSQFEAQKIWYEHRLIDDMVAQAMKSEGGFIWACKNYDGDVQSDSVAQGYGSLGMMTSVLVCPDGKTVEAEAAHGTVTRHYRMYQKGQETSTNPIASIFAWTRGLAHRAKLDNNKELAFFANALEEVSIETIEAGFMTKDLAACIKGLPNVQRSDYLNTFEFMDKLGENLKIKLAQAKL

Row | Structure (SMILES) | IC50 (IDH1R132H) | also measured
1 | CC1(c2onc(-c3c(Cl)cc(Cl)cc3Cl)c2C(=O)n2ccc3c(/C=C/C(=O)O)cccc32)COC1 [Example 1, (2E)-3-(1-{[5-(3-Methyloxetan-3-yl)-3-(2,4,6-trichlorophenyl)-1,2-oxazol-4-yl]carbonyl}-1H-indol-4-yl)prop-2-enoic acid] | 0.01 µM | IC50 (TF-1/IDH1R132H cells): 0.079 µM; IC50 [1, 2]: 33 nM
2 | CC1(c2onc(-c3c(Cl)cc(Cl)cc3Cl)c2C(=O)n2cc3c4c(cccc42)/C(=C/C(=O)O)CC3)COC1 [Example 8, (2E)-[1-{[5-(3-Methyloxetan-3-yl)-3-(2,4,6-trichlorophenyl)-1,2-oxazol-4-yl]carbonyl}-3,4-dihydrobenzo[cd]indol-5(1H)-ylidene]ethanoic acid] | 0.008 µM | IC50 (TF-1/IDH1R132H cells): 0.068 µM; IC50 [1, 2]: 21 nM
3 | Cc1cn(C(=O)c2c(-c3c(Cl)cc(Cl)cc3Cl)noc2C2(C)CCC2)c2cccc(/C=C/C(=O)O)c12 [Example 10, (2E)-3-(3-Methyl-1-{[5-(1-methylcyclobutyl)-3-(2,4,6-trichlorophenyl)-1,2-oxazol-4-yl]carbonyl}-1H-indol-4-yl)prop-2-enoic acid] | 0.018 µM | IC50 (TF-1/IDH1R132H cells): 0.152 µM; IC50 [1, 2]: 73 nM
4 | C=Cc1ccc(-c2onc(-c3c(Cl)cc(Cl)cc3Cl)c2C(=O)n2ccc3c(/C=C/C(=O)O)cccc32)cn1 [Example 73, (2E)-3-(1-{[5-(6-Ethenylpyridin-3-yl)-3-(2,4,6-trichlorophenyl)-1,2-oxazol-4-yl]carbonyl}-1H-indol-4-yl)prop-2-enoic acid] | – | IC50 (TF-1/IDH1R132H cells): 0.015 µM; IC50 ([1]; TF-1, read-out: Test Example 2 IC50 (nM)): 14 nM
5 | Cc1cn(C(=O)c2c(-c3ccc(Cl)cc3Cl)noc2C2(C)COC2)c2cccc(/C=C/C(=O)O)c12 [Example 78, (2E)-3-(1-{[3-(2,4-Dichlorophenyl)-5-(3-methyloxetan-3-yl)-1,2-oxazol-4-yl]carbonyl}-3-methyl-1H-indol-4-yl)prop-2-enoic acid] | – | IC50 (TF-1/IDH1R132H cells): 0.518 µM; IC50 [1, 2]: 204 nM
6 | C=CC(=O)N1CCN(c2onc(-c3c(Cl)cc(Cl)cc3Cl)c2C(=O)n2ccc3c(/C=C/C(=O)O)cccc32)CC1 [Example 143, (2E)-3-(1-{[5-(4-Acryloylpiperazin-1-yl)-3-(2,4,6-trichlorophenyl)-1,2-oxazol-4-yl]carbonyl}-1H-indol-4-yl)prop-2-enoic acid] | 0.116 µM | –
7 | C=CC(=O)N1C[C@@H](C)N(c2onc(-c3c(Cl)cccc3Cl)c2C(=O)n2ccc3c(/C=C/C(=O)O)cccc32)[C@@H](C)C1 [Example 144, (2E)-3-(1-{[5-(4-Acryloyl-cis-2,6-dimethylpiperazin-1-yl)-3-(2,6-dichlorophenyl)-1,2-oxazol-4-yl]carbonyl}-1H-indol-4-yl)prop-2-enoic acid] | 0.071 µM | –
8 | C=CC(=O)N1CCN(c2onc(-c3c(Cl)cccc3Cl)c2C(=O)n2ccc3c(/C=C/C(=O)O)cccc32)[C@@H](C)C1 [Example 145, (2E)-3-[1-({5-[(2S)-4-Acryloyl-2-methylpiperazin-1-yl]-3-(2,6-dichlorophenyl)-1,2-oxazol-4-yl}carbonyl)-1H-indol-4-yl]prop-2-enoic acid] | 0.08 µM | –
9 | C=CC(=O)N1CCN(c2onc(-c3c(Cl)cccc3Cl)c2C(=O)n2ccc3c(/C=C/C(=O)O)cccc32)C2(CC2)C1 [Example 147, (2E)-3-(1-{[5-[7-Acryloyl-4,7-diazaspiro[2.5]oct-4-yl]-3-(2,6-dichlorophenyl)-1,2-oxazol-4-yl]carbonyl}-1H-indol-4-yl)prop-2-enoic acid] | 0.02 µM | –
10 | C=CC(=O)N1CCN(c2onc(-c3c(Cl)cc(Cl)cc3Cl)c2C(=O)n2ccc3c(/C=C/C(=O)O)cccc32)C[C@H]1C [Example 148, (2E)-3-[1-({5-[(3R)-4-Acryloyl-3-methylpiperazin-1-yl]3-(2,4,6-trichlorophenyl)-1,2-oxazol-4-yl}carbonyl)-1H-indol-4-yl]prop-2-enoic acid] | 0.167 µM | –
11 | C=CS(=O)(=O)N1CCN(c2onc(-c3c(Cl)cccc3Cl)c2C(=O)n2ccc3c(/C=C/C(=O)O)cccc32)CC1 [Example 149, (2E)-3-[1-({3-(2,6-Dichlorophenyl)-5-[4-(ethenylsulfonyl)piperazin-1-yl]-1,2-oxazol-4-yl}carbonyl)-1H-indol-4-yl]prop-2-enoic acid] | 0.016 µM | –
12 | C=CC(=O)N1C[C@@H](C)N(c2onc(-c3c(Cl)cc(Cl)cc3Cl)c2C(=O)n2ccc3c(/C=C/C(=O)O)cccc32)[C@@H](C)C1 [Example 151, (2E)-3-(1-{[5-(4-Acryloyl-cis-2,6-dimethylpiperazin-1-yl)-3-(2,4,6-trichlorophenyl)-1,2-oxazol-4-yl]carbonyl}-1H-indol-4-yl)prop-2-enoic acid] | 0.098 µM | –
13 | C=CC(=O)N1C[C@@H](C)N(c2onc(-c3c(Cl)cc(Cl)cc3Cl)c2C(=O)n2ccc3c(/C=C/C(=O)O)cccc32)C[C@H]1C [Example 152, (2E)-3-[1-({5-[(2R,5R)-4-Acryloyl-2,5-dimethylpiperazin-1-yl]-3-(2,4,6-trichlorophenyl)-1,2-oxazol-4-yl}carbonyl)-1H-indol-4-yl]prop-2-enoic acid] | 0.144 µM | –
14 | C=CC(=O)N1CCN(c2onc(-c3c(Cl)cccc3Cl)c2C(=O)n2ccc3c(/C=C/C(=O)O)cccc32)C(C)(C)C1 [Example 153, (2E)-3-(1-{[5-(4-Acryloyl-2,2-dimethylpiperazin-1-yl)-3-(2,6-dichlorophenyl)-1,2-oxazol-4-yl]carbonyl}-1H-indol-4-yl)prop-2-enoic acid] | 0.088 µM | –
15 | C=CC(=O)N1CCN(c2onc(-c3c(Cl)cccc3Cl)c2C(=O)n2ccc3c(/C=C/C(=O)O)cccc32)[C@H](C2CC2)C1 [Example 154, (2E)-3-[1-({5-[(2R)-4-Acryloyl-2-cyclopropylpiperazin-1-yl]-3-(2,6-dichlorophenyl)-1,2-oxazol-4-yl}carbonyl)-1H-indol-4-yl]prop-2-enoic acid] | 0.299 µM | –
16 | C=CC(=O)N1CC2(CC2)N(c2onc(-c3c(Cl)cccc3Cl)c2C(=O)n2ccc3c(/C=C/C(=O)O)cccc32)C[C@H]1C [Example 155, (2E)-3-[1-({5-[(6R)7-Acryloyl-6-methyl-4,7-diazaspiro[2.5]oct-4-yl]-3-(2,6-dichlorophenyl)-1,2-oxazol-4-yl}carbonyl)-1H-indol-4-yl]prop-2-enoic acid] | 0.02 µM | –
17 | C=CC(=O)N1CC2(CC2)N(c2onc(-c3c(F)cccc3Cl)c2C(=O)n2ccc3c(/C=C/C(=O)O)cccc32)C[C@H]1C [Example 156, (2E)-3-[1-({5-[(6R)7-Acryloyl-6-methyl-4,7-diazaspiro[2.5]oct-4-yl]-3-(2-chloro-6-fluorophenyl)-1,2-oxazol-4-yl}carbonyl)-1H-indol-4-yl]prop-2-enoic acid] | 0.041 µM | –
18 | C=CC(=O)N1CCN(c2onc(-c3c(F)cccc3Cl)c2C(=O)n2ccc3c(/C=C/C(=O)O)cccc32)C(C)(C)C1 [Example 157, (2E)-3-(1-{[5-(4-Acryloyl-2,2-dimethylpiperazin-1-yl)-3-(2-chloro-6-fluorophenyl)-1,2-oxazol-4-yl]carbonyl}-1H-indol-4-yl)prop-2-enoic acid] | 0.314 µM | –
19 | C=CC(=O)N1CC2(CC2)N(c2onc(-c3c(Cl)cccc3OC)c2C(=O)n2ccc3c(/C=C/C(=O)O)cccc32)C[C@H]1C [Example 158, (2E)-3-[1-({5-[(6R)7-Acryloyl-6-methyl-4,7-diazaspiro[2.5]oct-4-yl]-3-(2-chloro-6-methoxyphenyl)-1,2-oxazol-4-yl}carbonyl)-1H-indol-4-yl]prop-2-enoic acid] | 0.064 µM | –
20 | C=CC(=O)N1C[C@@H](C)N(c2onc(-c3c(Cl)cccc3Cl)c2C(=O)n2ccc3c(/C=C/C(=O)O)cccc32)C2(CC2)C1 [Example 159, (2E)-3-[1-({5-[(5R)7-Acryloyl-5-methyl-4,7-diazaspiro[2.5]oct-4-yl]-3-(2,6-dichlorophenyl)-1,2-oxazol-4-yl}carbonyl)-1H-indol-4-yl]prop-2-enoic acid] | 0.011 µM | –
21 | C=CC(=O)N1CC2(CC2)N(c2onc(-c3c(Cl)cccc3OC)c2C(=O)n2ccc3c(/C=C/C(=O)O)cccc32)C[C@H]1CC [Example 161, (2E)-3-[1-({5-{(6R)7-Acryloyl-6-ethyl-4,7-diazaspiro[2.5]oct-4-yl]-3-(2-chloro-6-methoxyphenyl)-1,2-oxazol-4-yl}carbonyl)-1H-indol-4-yl]prop-2-enoic acid] | 0.035 µM | –
22 | C=CC(=O)N1CC2(CC2)N(c2onc(-c3c(F)cccc3Cl)c2C(=O)n2cc(C)c3c(/C=C/C(=O)O)cccc32)C[C@H]1C [Example 162, (2E)-3-[1-({5-[(6R)7-Acryloyl-6-methyl-4,7-diazaspiro[2.5]oct-4-yl]-3-(2-chloro-6-fluorophenyl)-1,2-oxazol-4-yl}carbonyl)-3-methyl-1H-indol-4-yl]prop-2-enoic acid] | 0.02 µM | –
23 | C=CC(=O)N1CC2(CC2)N(c2onc(-c3c(Cl)cccc3Cl)c2C(=O)n2ccc3c(/C=C/C(=O)O)cccc32)C[C@H]1CC [Example 163, (2E)-3-[1-({5-[(6R)7-Acryloyl-6-ethyl-4,7-diazaspiro[2.5]oct-4-yl]-3-(2,6-dichlorophenyl)-1,2-oxazol-4-yl}carbonyl)-1H-indol-4-yl]prop-2-enoic acid] | 0.016 µM | –
24 | Cn1cc(C(=O)c2c(-c3c(Cl)cc(Cl)cc3Cl)noc2C(C)(C)C)c2cccc(/C=C/C(=O)O)c21 [Example 164] | – | IC50 (TF-1/IDH1R132H cells): 0.674 µM; IC50 [1, 2]: 255 nM
25 | C=CC(=O)N1CCC(c2onc(-c3c(Cl)cc(Cl)cc3Cl)c2C(=O)c2cn(C)c3c(/C=C/C(=O)O)cccc23)CC1 [Example 166, (2E)-3-(3-{[5-(1-Acryloylpiperidin-4-yl)-3-(2,4,6-trichlorophenyl)-1,2-oxazol-4-yl]carbonyl}-1-methyl-1H-indol-7-yl)prop-2-enoic acid] | 0.054 µM | –
26 | Cn1cc(C(=O)c2c(-c3c(Cl)cc(Cl)cc3Cl)noc2C(C)(C)C)c2ccc3ccc(C(=O)O)cc3c21 [Example 167, 3-{[5-tert-Butyl-3-(2,4,6-trichlorophenyl)-1,2-oxazol-4-yl]carbonyl}-1-methyl-1H-benzo[g]indole-8-carboxylic acid] | 0.037 µM | –

Reference: patent US10040791B2, “Isoxazole derivative as mutant isocitrate dehydrogenase 1 inhibitor” (Daiichi Sankyo Company, Limited, priority 2014, dated 2018)
